Assays:
[1] = molecular target: T1, human carbonic anhydrase II, HCAII (Homo sapiens, UniProt P00918); experiment: Surface plasmon resonance-based steady state affinity, immobilized HCAII; type: binding
Description: The solid line represents the theoretical curve for equilibrium response as a function of peptide concentration with Kd=0.08 μM (bimolecular interaction model). Experimental data from duplicate measurements are shown.
[Taylor, P. W.; King, R. W.; Burgen, A. S. V. Biochemistry 1970, 9, 2638-2645] […] With benzenesulfonamide derivatives bearing alkyl chains of different lengths in the para position, increased affinities towards HCAII as compared to that of Ia have been reported [King, R. W.; Burgen, A. S. V. Proc. R. Soc. Lond. B 1976, 193, 107-125]. Thus, to increase the affinity of the benzenesulfonamide inhibitor, and to minimize sterical constraints upon HCAII binding that could be introduced by coupling the benzenesulfonamide ligand to the peptide, an aliphatic spacer was introduced. […] 1.4 equivalents of Id were allowed to react with 1 equivalent of KE2-P or KE3-P in 50 mM Tris-HCl buffer at pH 8.0 and room temperature. The modified peptides KE2-PL and KE3-PL were purified by reversed-phase HPLC on a Hichrom C-8-column using 0.1% TFA in 40% aqueous 2-propanol as the eluent and lyophilized. The yield was 55% and 77% for KE2-PL and KE3-PL, respectively. […]

[2] = molecular target: T1, human carbonic anhydrase II, HCAII; experiment: Fluorescence titration of peptide with HCAII (two-state / bimolecular binding model); details: 1 μM KE2-PL and 2 μM HCAII, based on Kd 0.02 μM
Description: The affinity of the interaction was estimated to be 0.02 μM from curve fitting using a two-state binding model.
Upon titration of 1 μM KE2-PL with 5 nM-50 μM HCAII, a sigmoid curve was obtained, FIG. 3. For the bimolecular association between KE2-PL and HCAII, the equilibrium dissociation constant Kd equals the concentration of free HCAII at the inflexion point. Kd was estimated to be 0.02 μM from the best fit to the experimental results of an equation describing the dissociation of a bimolecular complex. […] The use of an array of peptides modified with ligands of different affinities, makes measurements of analyte concentrations possible, at levels of accuracy limited, in principle, only by the number of different ligand variants available, and by the affinity range of those variants.

| Kd, preliminary surface plasmon resonance-based affinity measurements [1] | fraction of peptide bound to HCAII [2] | Substance |
| --- | --- | --- |
| in the μM range |  | KE2-PL modified with Ib: KE2 with fluorescent probe and 4-carboxybenzenesulfonamide ligand attached via active ester Ib, without spacer (NAADLEAAIRHLAEKLAARGPVDAAQLAEQLAKKFEAFARAG) |
|  | more than 90% | KE2-PL: KE2 with dansyl probe at Lys15 and benzenesulfonamide ligand with aliphatic spacer (from Id) at Lys34 (NAADLEAAIRHLAEKLAARGPVDAAQLAEQLAKKFEAFARAG) |

Source: patent US7569661B2, “Polypeptide scaffolds and use thereof” (Modpro AB, priority 2002, dated 2009)
